# Where “and” joins values, the source holds several entries; their conditions need not be identical. Identical values can stand only once.
# Tests used:
# Inoculum = test: Acid sanitizer microbiology test (sanitizing capacity)
# [1] = Dye and chlorine stability test, effect of pH; type: physicochemical; details: initial 100 ppm chlorine
# [2] = Chlorine stability of acid sanitizer solutions; type: physicochemical
substance,measurement,setting,value
Chlorinated trisodium phosphate,% Reduction,"Inoculum; chlorine 12 ppm, pH 5.13",100.0000%
Sodium dichloroisocyanurate dihydrate,Available Chlorine,"[1]; pH buffered at 2, 0.0 hours",10-50 ppm
same,Available Chlorine,"[1]; pH buffered at 2, 175 hours",0 ppm
same,Available Chlorine,"[1]; pH buffered at 4, 2.5 hours",80-100 ppm
same,Available Chlorine,"[1]; pH buffered at 4, 175 hours",0 ppm
same,Available Chlorine,"[1]; pH buffered at 6, 5.0 hours",100 ppm
same,Available Chlorine,"[1]; pH buffered at 6, 175 hours",80-100 ppm
same,Available Chlorine,"[1]; pH buffered at 8, 0.25 hours",100 ppm
same,Available Chlorine,"[1]; pH buffered at 8, 175 hours",50-100 ppm
same,Available Chlorine,"[1]; pH buffered at 10, 0.0 hours",100 ppm
same,Available Chlorine,"[1]; pH buffered at 10, 175 hours",10 ppm
same,Available Chlorine,"[1]; pH buffered at 12, 0.0 hours",100 ppm
same,Available Chlorine,"[1]; pH buffered at 12, 175 hours",10 ppm
same,Chlorine (ppm) Conc. 0 Time,"[2]; chlorine 10 ppm, pH 4.55",9.9 ppm
same,Chlorine (ppm) Conc. 4 Hours,"[2]; chlorine 10 ppm, pH 4.55",8.5 ppm
same,Chlorine (ppm) Conc. 24 Hours,"[2]; chlorine 10 ppm, pH 4.55",5.67 ppm
same,Chlorine (ppm) Conc. 0 Time,"[2]; chlorine 30 ppm, pH 4.78",26.9 ppm
same,Chlorine (ppm) Conc. 4 Hours,"[2]; chlorine 30 ppm, pH 4.78",22.69 ppm
same,Chlorine (ppm) Conc. 24 Hours,"[2]; chlorine 30 ppm, pH 4.78",19.85 ppm
same,% Reduction,"Inoculum; chlorine 10 ppm, pH 4.55, listed as CDB Chlorinated Isocyanurate, dihydrate",99.9999% and 100.0000%
same,% Reduction,"Inoculum; chlorine 30 ppm, pH 4.78",100.0000%
